Compound activity from PubChem.
Hits are enriched below; roughly 16% of the tested compounds scored in any of these assays.
DT40 TDP1 CPT: growth inhibition of DT40 Tdp1-/-;hTDP1 cells with camptothecin (screen for TDP1 inhibitors) | chicken DT40 Tdp1-/-;hTDP1 cells + 20 nM CPT, ATP luminescence, 48 h | Potency, µM (highest dose often 46.2 µM), for inactives: top-dose activity change, negative = growth inhibition, hits mostly inhibitors | actives 12% (n = 420,000) | AID 686979; also: potency is read from the fitted curve at half-maximal effect; % is scaled to controls: 0 for no effect and ±100 for the full control effect; nearly all actives have a fitted effect of over 55% in size
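Chicken DT40 Tdp1-/- cells complemented with human TDP1, 400 cells/well, exposed to compounds plus 20 nM camptothecin for at least 48 h at 37 C; viability read as ATP content by CellTiter-Glo luminescence.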
DT40 TDP1 no CPT: qHTS for Inhibitors of human tyrosyl-DNA phosphodiesterase 1 (TDP1): qHTS in cells in absence of CPT. DT40 Tdp1-/- hTDP1 cells, no CPT, ATP luminescence, 48 h. Potency, µM (highest dose often 46.2 µM), inactives show at the highest dose activity change, negative = growth inhibition, usual class: inhibitors. actives 15% (n = 420,000); also: potency is read from the fitted curve at half-maximal effect; % is scaled to controls: 0 for no effect and ±100 for the full control effect; nearly all actives have a fitted effect of over 55% in size
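Seeded 400 DT40-hTDP1 cells/well (vehicle DMSO, no 20 nM CPT); pinned compounds; ≥48 hr at 37 °C; CellTiter-Glo luminescence as viability measure.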
uPA surface inh: blocks generation of uPA at the cell surface; actives 0.31% (n = 330,000); cell surface uPA generation assay, qHTS; Potency, µM (series often up to 38.3 µM), inactives show at the top dose activity change, negative = inhibition, hits mostly inhibitors; active = well fitted inhibition curve with a large enough effect; inconclusive = small, poorly fitted or top-dose-only effect; inactive = no such curve, though single readings can be large or run the other way; tested in mouse RAW 264.7 cells; also: potency is read from the fitted curve at half-maximal effect; % is scaled to controls: 0 for no effect and ±100 for the full control effect; nearly all actives have a fitted effect of over 55% in size
miR-21 FLuc: miR-21 reporter, rising signal | HeLa miR-21 FLuc reporter, luciferase, 48 h | Potency, µM (top dose mostly 38.3 µM), inactives show at the highest dose reporter change, positive = more light | 340,000 tested, under 10 active | AID 2288; active = well fitted rising curve with a large enough effect; inconclusive = small, poorly fitted or top-dose-only effect; inactive = no such curve, though single readings can be large or run the other way;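 note: % of control where 0% means no effect; miR-21 action dims this reporter so a rising signal means less miR-21 action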
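Luminescence from a firefly luciferase reporter carrying a miR-21 binding site downstream, stably expressed under a CMV promoter in HeLa cells that make miR-21 endogenously, reports miRNA modulation after 48 h compound exposure up to approximately 40uM final.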
TDP1 block: blocks human tyrosyl-DNA phosphodiesterase 1; AID 485290; actives 0.28% (n = 350,000); recombinant TDP1, AlphaScreen DNA substrate cleavage; Potency, µM (titrated, usually from 130 µM), for inactives: at the top dose activity change, negative = inhibition, most hits filed as inhibitors; also: potency is read from the fitted curve at half-maximal effect; % is scaled to controls: 0 for no effect and ±100 for the full control effect; nearly all actives have a fitted effect of over 40% in size
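Signal: AlphaScreen proximity between streptavidin donor and anti-FITC acceptor beads on intact substrate. Reaction: Tdp1 1 nM, substrate 15 nM final, 5 min RT after 15 min compound preincubation.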
* hit, by the source's call; ? = inconclusive; . = no result. Unless noted, calls follow the shape of the dose curve; as a rule, active = well fitted curve in the direction sought with a large enough effect; inconclusive = small, poorly fitted or top-dose-only effect, or another doubt; inactive = no such curve, though single readings can be large; an effect the other way counts as inactive or inconclusive.

(1) CC(C)=NOC(=O)c1c(C)noc1-c1snnc1C
(2) COC(=O)c1ccn(CC(=O)NC2CCCCC2)n1
(3) CC(C)(C)c1ccc(OCCC(=O)OCC(=O)NC(=O)NC2CCCC2)cc1
(4) CN(C)S(=O)(=O)c1cc(NC(=O)Cn2ccsc2=N)ccc1Cl
(5) O=C(Nc1ccccc1N1CCCCC1)c1ccc(Cl)c([N+](=O)[O-])c1
(6) O=C(Nc1cccc2c1CCCC2)c1cc([N+](=O)[O-])ccc1Cl

| Screen / compound no. | 1 | 2 | 3 | 4 | 5 | 6 |
| --- | --- | --- | --- | --- | --- | --- |
| DT40 TDP1 no CPT | -2.4% | -19.1% | 18.4µM* | -10.3% | 18.4µM* | 25.9µM* |
| TDP1 block | . | 28.2µM* | . | 7.7% | 10.0% | 0.0% |
| miR-21 FLuc | 3.0% | 0.1% | . | -7.9% | -1.9% | ? |
| DT40 TDP1 CPT | 13.3% | 1.0% | 18.4µM* | -6.2% | ? | ? |
| uPA surface inh | 3.5% | 25.0% | -8.7% | 1.5% | -6.6% | -11.0% |

(7) CN1CCN(c2ccccc2NC(=O)c2ccc(N3CCCC3)c([N+](=O)[O-])c2)CC1
(8) O=C(Nc1cccc2c1CCCC2)c1ccc(Cl)c([N+](=O)[O-])c1
(9) CS(=O)(=O)Nc1ccc2c(c1)[C@H]1C[C@H](CC(=O)NCc3cccc(F)c3)O[C@@H](CO)[C@H]1O2
(10) CCc1ccc(-c2cc(C)no2)cc1S(=O)(=O)N1CCC(C)CC1
(11) Cc1cc(-c2ccc(C(C)C)c(S(=O)(=O)N3CCC(C)CC3)c2)on1
(12) Cc1cc(-c2ccc(C)c(S(=O)(=O)N3CCC(C)CC3)c2)on1

| Screen / compound no. | 7 | 8 | 9 | 10 | 11 | 12 |
| --- | --- | --- | --- | --- | --- | --- |
| DT40 TDP1 no CPT | ? | 16.4µM* | -27.0% | 23.1µM* | 18.4µM* | ? |
| TDP1 block | 5.5% | 5.4% | . | -7.7% | -4.5% | 2.6% |
| miR-21 FLuc | -21.7% | -0.1% | . | -4.6% | 5.9% | 11.3% |
| DT40 TDP1 CPT | ? | ? | -18.1% | ? | 25.9µM* | ? |
| uPA surface inh | -4.6% | -7.4% | . | -2.0% | 10.4% | . |

Continued; the last three above are carried over.
(10) CCc1ccc(-c2cc(C)no2)cc1S(=O)(=O)N1CCC(C)CC1
(11) Cc1cc(-c2ccc(C(C)C)c(S(=O)(=O)N3CCC(C)CC3)c2)on1
(12) Cc1cc(-c2ccc(C)c(S(=O)(=O)N3CCC(C)CC3)c2)on1
(13) Cc1cc(-c2ccc(C(C)C)c(S(=O)(=O)N3CCN(c4ccccc4)CC3)c2)on1
(14) CCCCOc1ccc2c(C)cc(=O)oc2c1OCCCC
(15) CC(=O)c1c(OCC(=O)O)ccc2c(C)cc(=O)oc12
(16) CCC(=O)Oc1ccc2c(C)cc(=O)oc2c1C
(17) Cc1cc(=O)oc2c(C)c(OC(=O)c3ccco3)ccc12
(18) CCOC(=O)c1[nH]c(C)c(C(=O)NCCc2ccc(OC)cc2)c1C

| Screen / compound no. | 10 | 11 | 12 | 13 | 14 | 15 | 16 | 17 | 18 |
| --- | --- | --- | --- | --- | --- | --- | --- | --- | --- |
| DT40 TDP1 no CPT | 23.1µM* | 18.4µM* | ? | 2.06µM* | 25.9µM* | -0.9% | 6.51µM* | -20.9% | -17.3% |
| TDP1 block | -7.7% | -4.5% | 2.6% | 0.9% | -1.1% | 0.0% | 4.5% | . | 3.1% |
| miR-21 FLuc | -4.6% | 5.9% | 11.3% | 22.9% | 0.5% | -2.5% | 1.7% | . | -2.2% |
| DT40 TDP1 CPT | ? | 25.9µM* | ? | 2.59µM* | 16.4µM* | -21.0% | ? | -17.9% | -17.3% |
| uPA surface inh | -2.0% | 10.4% | . | 1.6% | 4.2% | . | 6.4% | 3.4% | . |

(19) COc1ccc(N(Cc2cc3cccc(C)c3[nH]c2=O)S(C)(=O)=O)cc1
(20) N#Cc1nc(-c2ccccc2)oc1N1CCN(C(=O)c2ccco2)CC1
(21) CC(C)(C)c1ccc(OCC(=O)N/N=C/c2cc(Br)ccc2OC(=O)c2ccco2)cc1
(22) O=C(Cc1ccc(Cl)cc1)SCc1ccccc1
(23) CCOC(=O)c1ccc(OCC2c3cc(OC)c(OC)cc3CCN2C(=O)Cc2ccc(F)cc2)cc1 (stereo not given)
(24) COc1cc2c(cc1OC)C(COc1ccc(F)cc1)N(C(=O)c1cccc(F)c1)CC2 (stereo not given)

| Screen / compound no. | 19 | 20 | 21 | 22 | 23 | 24 |
| --- | --- | --- | --- | --- | --- | --- |
| DT40 TDP1 no CPT | ? | ? | 4.11µM* | 4.2% | 18.4µM* | ? |
| TDP1 block | 3.6% | 7.6% | 3.8% | 31.6µM* | 10.4% | 10.4% |
| miR-21 FLuc | -1.0% | -10.0% | -4.3% | . | 17.9% | 0.4% |
| DT40 TDP1 CPT | ? | ? | 4.61µM* | -9.0% | 23.1µM* | 16.4µM* |
| uPA surface inh | . | 0.2% | 3.0% | 8.1% | . | . |

Look-ups from the entries so far:
no. 21 in DT40 TDP1 no CPT is entered as 4.11µM*
no. 23 in DT40 TDP1 CPT is entered as 23.1µM*
no. 20 in miR-21 FLuc is entered as -10.0%

Next section
(25) COc1cc2c(cc1OC)C(c1cccc([N+](=O)[O-])c1)N(C(=O)c1ccc(F)cc1)CC2 (stereo not given)
(26) CNC(=S)N1CCc2cc(OC)c(OC)cc2C1COc1ccc(F)cc1 (stereo not given)
(27) CCOC(=O)c1ccc(OCC2c3cc(OC)c(OC)cc3CCN2C(=O)c2ccc(S(=O)(=O)N3CCCC3)cc2)cc1 (stereo not given)
(28) COc1cc2c(cc1OC)C(COc1ccc(F)cc1)N(C(=O)Cc1ccc(F)cc1)CC2 (stereo not given)

| Screen / compound no. | 25 | 26 | 27 | 28 |
| --- | --- | --- | --- | --- |
| DT40 TDP1 no CPT | 13µM* | -0.3% | ? | 16.4µM* |
| TDP1 block | 8.3% | 0.0% | 5.2% | 2.6% |
| miR-21 FLuc | 8.8% | -20.4% | -3.9% | 5.0% |
| DT40 TDP1 CPT | 18.4µM* | 1.3% | ? | 25.9µM* |
| uPA surface inh | -0.1% | -4.0% | . | . |
